# From patent US10828265B2, “Formulations of propranolol and analogs as an amorphous melt or ionic liquid for transdermal drug delivery” (The Regents of the University of California, priority 2016, dated 2020)
# Read-outs that look alike come from different tables or passages of the source.
# Conditions: neat melt, SD of three measurements in parentheses
# Procedure: Standard deviations of three measurements are provided in parentheses.
# Viscosity was measured using 1-mL samples with a LC-ARES Test Station (TA Instruments, New Castle, Del.) and a cone (diameter: 25 mm; angle: 0.1 rad). The cone rotation rate was 10 s^−1 and viscosity was measured three times per sample at 25° C. and 37° C. Differential scanning calorimetry (DSC) was performed with a Q2000 DSC with 50 position autosampler (TA Instruments, New Castle, Del.). Sample size was 9-10 mg, and was weighed in an aluminum hermetic pan. Samples were heated from room temperature to 120° C. under N2 atmosphere followed by cooling to […] and subsequent heating back to 120° C. with a ramp rate of 10° C. per minute.
substance,measurement,setting,value
propranolol isobutyl sulfosuccinate [PRL:C4],Propranolol Melt Viscosity,25° C.,599.5 (6.5) Pa s
same,Propranolol Melt Viscosity,37° C.,87.0 (0.7) Pa s
